pIC50: −log10 of the molar value.

Sequences of proteins named here, by UniProt entry; tags and fusion partners are left off.
UniProt P22002, whole entry: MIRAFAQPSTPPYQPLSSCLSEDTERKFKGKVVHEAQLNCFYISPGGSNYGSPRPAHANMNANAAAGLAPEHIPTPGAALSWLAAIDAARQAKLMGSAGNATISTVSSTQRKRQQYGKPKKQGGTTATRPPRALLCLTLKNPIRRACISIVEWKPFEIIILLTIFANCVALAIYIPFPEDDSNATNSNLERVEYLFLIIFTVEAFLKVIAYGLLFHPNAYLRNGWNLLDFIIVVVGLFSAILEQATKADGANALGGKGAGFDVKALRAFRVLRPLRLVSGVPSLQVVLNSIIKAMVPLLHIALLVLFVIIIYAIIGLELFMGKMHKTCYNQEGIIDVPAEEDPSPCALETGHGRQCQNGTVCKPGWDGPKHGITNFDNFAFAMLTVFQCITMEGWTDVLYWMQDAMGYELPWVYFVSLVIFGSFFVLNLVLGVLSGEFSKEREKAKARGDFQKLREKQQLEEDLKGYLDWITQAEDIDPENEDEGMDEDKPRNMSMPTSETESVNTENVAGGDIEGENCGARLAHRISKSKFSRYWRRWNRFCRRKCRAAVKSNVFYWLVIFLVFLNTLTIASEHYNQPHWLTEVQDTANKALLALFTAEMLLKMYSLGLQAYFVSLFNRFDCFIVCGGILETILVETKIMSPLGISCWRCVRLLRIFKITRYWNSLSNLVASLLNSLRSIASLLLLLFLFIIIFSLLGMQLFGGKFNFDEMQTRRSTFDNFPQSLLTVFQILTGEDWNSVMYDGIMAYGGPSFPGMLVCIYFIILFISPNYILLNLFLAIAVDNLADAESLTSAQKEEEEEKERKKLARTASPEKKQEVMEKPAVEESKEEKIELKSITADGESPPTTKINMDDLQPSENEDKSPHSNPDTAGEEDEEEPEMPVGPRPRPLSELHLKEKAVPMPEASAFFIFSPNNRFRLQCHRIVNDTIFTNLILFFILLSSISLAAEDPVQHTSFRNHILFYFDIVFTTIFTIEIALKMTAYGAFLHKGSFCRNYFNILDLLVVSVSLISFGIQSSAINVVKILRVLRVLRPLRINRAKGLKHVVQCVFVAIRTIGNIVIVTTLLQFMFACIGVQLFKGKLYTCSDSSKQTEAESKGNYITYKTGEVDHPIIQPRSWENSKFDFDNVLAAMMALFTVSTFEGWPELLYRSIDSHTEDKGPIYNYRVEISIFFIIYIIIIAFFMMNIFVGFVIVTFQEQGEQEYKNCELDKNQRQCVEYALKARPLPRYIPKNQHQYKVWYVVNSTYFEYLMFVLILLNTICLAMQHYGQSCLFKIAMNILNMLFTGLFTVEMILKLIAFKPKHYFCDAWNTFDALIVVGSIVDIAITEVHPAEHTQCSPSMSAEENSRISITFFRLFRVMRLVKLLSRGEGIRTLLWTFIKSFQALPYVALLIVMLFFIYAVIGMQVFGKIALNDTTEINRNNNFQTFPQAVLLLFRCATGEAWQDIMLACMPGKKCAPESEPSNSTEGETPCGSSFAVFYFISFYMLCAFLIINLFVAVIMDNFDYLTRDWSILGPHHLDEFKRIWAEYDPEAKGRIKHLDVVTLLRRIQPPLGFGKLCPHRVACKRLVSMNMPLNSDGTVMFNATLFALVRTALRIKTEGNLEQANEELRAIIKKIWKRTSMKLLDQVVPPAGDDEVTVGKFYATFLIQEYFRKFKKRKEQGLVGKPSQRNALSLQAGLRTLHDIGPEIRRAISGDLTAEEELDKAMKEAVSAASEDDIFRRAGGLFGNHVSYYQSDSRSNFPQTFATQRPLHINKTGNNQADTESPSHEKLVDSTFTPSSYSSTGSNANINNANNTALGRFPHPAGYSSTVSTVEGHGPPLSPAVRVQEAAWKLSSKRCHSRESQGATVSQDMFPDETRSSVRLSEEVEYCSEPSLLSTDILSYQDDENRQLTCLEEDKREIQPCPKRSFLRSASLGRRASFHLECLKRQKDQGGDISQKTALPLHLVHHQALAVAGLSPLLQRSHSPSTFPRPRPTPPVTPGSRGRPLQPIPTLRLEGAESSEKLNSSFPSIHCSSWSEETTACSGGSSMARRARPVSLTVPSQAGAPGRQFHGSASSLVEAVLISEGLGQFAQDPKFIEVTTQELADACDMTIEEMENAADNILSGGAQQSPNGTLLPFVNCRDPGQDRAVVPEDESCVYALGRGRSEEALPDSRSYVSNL

The assay concerns the target Voltage-dependent L-type calcium channel subunit alpha-1C (Rattus norvegicus, UniProt P22002). The assay can be described thus: In vitro inhibition of K+ induced contractions of the isolated rat aorta. It counts as functional, tissue-based.

In general, pIC50 refers to the IC50 on a negative log10 scale, so that one unit is a factor of ten. `COc1ccc(CN(C)CCCN2C(=O)CSC2c2cc(C(C)(C)C)c(O)c(C(C)(C)C)c2)cc1OC` (stereo unspecified): the negative-log IC50 (pIC50) was 6.92.

Values taken from ChEMBL document CHEMBL1131614, “Novel calcium antagonists with both calcium overload inhibition and antioxidant activity. 1. 2-(3, 5-di-tert-butyl-4-hydroxyphenyl)-3-(aminopropyl)thiazolidinones” (J Med Chem, 1998).
